By UniProt entry, the sequences of proteins in these tests, tags left out. Where a name states a change or a piece, a line headed by the entry shows the natural chain unless it says otherwise.
UniProt P34975: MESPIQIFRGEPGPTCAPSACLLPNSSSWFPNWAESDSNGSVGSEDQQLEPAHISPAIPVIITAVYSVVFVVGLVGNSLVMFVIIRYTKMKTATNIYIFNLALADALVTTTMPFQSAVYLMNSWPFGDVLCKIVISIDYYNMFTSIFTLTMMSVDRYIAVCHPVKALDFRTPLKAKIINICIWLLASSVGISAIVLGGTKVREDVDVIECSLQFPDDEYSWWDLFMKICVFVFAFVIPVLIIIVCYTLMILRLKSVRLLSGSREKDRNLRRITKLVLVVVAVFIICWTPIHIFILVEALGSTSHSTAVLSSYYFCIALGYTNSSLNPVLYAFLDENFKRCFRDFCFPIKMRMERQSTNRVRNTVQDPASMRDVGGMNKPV
UniProt P32300, whole entry, looked up: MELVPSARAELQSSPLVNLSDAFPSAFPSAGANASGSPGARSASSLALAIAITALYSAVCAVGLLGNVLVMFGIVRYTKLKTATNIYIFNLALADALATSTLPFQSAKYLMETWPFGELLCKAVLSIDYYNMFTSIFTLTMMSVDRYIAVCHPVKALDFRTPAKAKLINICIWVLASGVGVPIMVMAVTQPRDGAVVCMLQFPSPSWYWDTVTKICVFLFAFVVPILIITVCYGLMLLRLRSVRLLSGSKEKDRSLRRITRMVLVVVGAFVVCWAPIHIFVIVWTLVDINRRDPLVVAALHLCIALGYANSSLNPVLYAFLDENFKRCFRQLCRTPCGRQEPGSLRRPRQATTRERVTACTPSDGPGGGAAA
UniProt P33535, whole entry, looked up: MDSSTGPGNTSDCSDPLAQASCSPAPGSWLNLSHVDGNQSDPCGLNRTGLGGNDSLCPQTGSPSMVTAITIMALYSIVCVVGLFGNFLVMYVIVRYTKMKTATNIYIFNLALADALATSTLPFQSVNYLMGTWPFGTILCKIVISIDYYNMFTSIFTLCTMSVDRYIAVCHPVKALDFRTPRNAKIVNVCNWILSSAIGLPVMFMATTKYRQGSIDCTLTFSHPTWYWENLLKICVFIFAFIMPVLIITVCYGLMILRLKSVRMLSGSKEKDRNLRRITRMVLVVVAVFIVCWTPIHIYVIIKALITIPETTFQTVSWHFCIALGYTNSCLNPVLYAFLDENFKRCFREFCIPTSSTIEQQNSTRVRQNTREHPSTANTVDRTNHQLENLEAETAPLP
UniProt P97266, whole entry, looked up: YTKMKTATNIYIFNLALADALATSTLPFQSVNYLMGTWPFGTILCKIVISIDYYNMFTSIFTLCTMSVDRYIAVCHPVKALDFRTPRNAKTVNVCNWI

In ChEMBL document CHEMBL3352706, “Novel cyclic biphalin analogue with improved antinociceptive properties” (2014):

Experiments:
[1] = target: Kappa-type opioid receptor (Rattus norvegicus) (UniProt P34975); test: Agonist activity at rat kappa opioid receptor expressed in CHO cells by [35S]GTPgammaS binding assay relative to untreated control
[2] = system: Mus musculus; test: Antinociceptive activity in CD1 mouse assessed as reduction in thermal nociception by at 0.1 nmol, icv measured 15 mins post dose by hot plate test
[3] = system: Mus musculus; test: Antinociceptive activity in CD1 mouse assessed as reduction in thermal nociception by measuring tail-flick latency at 0.1 nmol, icv measured 15 mins post dose by tail-flick assay
[4] = target: Delta-type opioid receptor (Mus musculus) (UniProt P32300); test: Agonist activity at mouse delta opioid receptor expressed in CHO cells by [35S]GTPgammaS binding assay relative to untreated control
[5] = target: Mu-type opioid receptor (Rattus norvegicus) (UniProt P33535); test: Agonist activity at rat mu opioid receptor expressed in CHO cells by [35S]GTPgammaS binding assay relative to untreated control
[6] = system: Mus musculus; test: Antinociceptive activity in CD1 mouse assessed as reduction in thermal nociception by at 1500 nmol, iv by tail flick test
[7] = system: Mus musculus; test: Antinociceptive activity in CD1 mouse assessed as reduction in thermal nociception by at 1500 nmol, iv by hot plate test
[8] = target: Mu-type opioid receptor (Cavia porcellus) (UniProt P97266); test: Agonist activity at mu opioid receptor in Hartley guinea pig ileum longitudinal muscle myenteric plexus assessed as inhibition of electrically-induced smooth muscle contraction at 1 mM
[9] = target: Delta-type opioid receptor (Mus musculus) (UniProt P32300); test: Agonist activity at delta opioid receptor in ICR mouse vas deferens assessed as inhibition of electrically-induced smooth muscle contraction at 1 mM

| Compound | Emax [1] [%] | inhibition [2] | inhibition [3] | Emax [4] [%] | Emax [5] [%] | inhibition [6] | inhibition [7] | inhibition [8] [%] | inhibition [9] [%] |
| --- | --- | --- | --- | --- | --- | --- | --- | --- | --- |
| C[C@@H](NC(=O)[C@@H](N)Cc1ccc(O)cc1)C(=O)NCC(=O)N[C@@H](Cc1ccccc1)C(=O)NNC(=O)[C@H](Cc1ccccc1)NC(=O)CNC(=O)[C@@H](C)NC(=O)[C@@H](N)Cc1ccc(O)cc1 | 109 | Active | Active | 220 | 178 | – | – | – | – |
| CC1(C)SSC(C)(C)[C@@H](NC(=O)[C@@H](N)Cc2ccc(O)cc2)C(=O)NCC(=O)N[C@@H](Cc2ccccc2)C(=O)NNC(=O)[C@H](Cc2ccccc2)NC(=O)CNC(=O)[C@@H]1NC(=O)[C@@H](N)Cc1ccc(O)cc1 | 127 | – | – | 150 | 474 | Active | Active | – | – |
| CC[C@H](C)[C@H](NC(=O)[C@H](CCC(=O)O)NC(=O)[C@H](Cc1ccccc1)NC(=O)[C@H](C)NC(=O)[C@@H](N)Cc1ccc(O)cc1)C(=O)N[C@H](C(=O)NCC(=O)O)[C@@H](C)CC | – | – | – | 143 | – | – | – | – | – |
| CN(C(=O)Cc1ccccc1)[C@H]1CC[C@@]2(CCCO2)C[C@@H]1N1CCCC1 | 202 | – | – | – | – | – | – | – | – |
| CC1(C)SSC(C)(C)[C@H](NC(=O)[C@@H](N)Cc2ccc(O)cc2)C(=O)NCC(=O)N[C@@H](Cc2ccccc2)C(=O)NNC(=O)[C@H](Cc2ccccc2)NC(=O)CNC(=O)[C@H]1NC(=O)[C@@H](N)Cc1ccc(O)cc1 | 124 | – | – | 143 | 162 | – | – | 4 | 21 |

Calls of active or inactive are those of the source. The calls are words filed in the database; no cut-off is given here.
